Source: patent US7439251B2, “Methods and compositions for treatment of central and peripheral nervous system disorders and novel compounds useful therefor” (Israel Institute for Biological Research, priority 2002, dated 2008)

Test system: rat pheochromocytoma cells transfected with the M1 mAChR
Assay: MTT cell viability against β-amyloid and H2O2 in M1 mAChR transfected cells
Conditions: β-A25-35 10 & 20 μM

Question: With “(S)-Ethyl-4-(3-1H-indol-3-yl-propionyl)-8-methyl-1-thia-4,8-diaza-spiro[4.5]decan-3-one” as the substance, how does the β-A25-35-induced cytotoxicity read?
Answer: more effective than carbachol and AF267B
